Data on 23 compounds can be found in PubChem BioAssay AID425 (Sanford-Burnham Center for Chemical Genomics, 2006).

Chains of the proteins cited; added tags and fusions are not shown.
UniProt Q64346, whole entry: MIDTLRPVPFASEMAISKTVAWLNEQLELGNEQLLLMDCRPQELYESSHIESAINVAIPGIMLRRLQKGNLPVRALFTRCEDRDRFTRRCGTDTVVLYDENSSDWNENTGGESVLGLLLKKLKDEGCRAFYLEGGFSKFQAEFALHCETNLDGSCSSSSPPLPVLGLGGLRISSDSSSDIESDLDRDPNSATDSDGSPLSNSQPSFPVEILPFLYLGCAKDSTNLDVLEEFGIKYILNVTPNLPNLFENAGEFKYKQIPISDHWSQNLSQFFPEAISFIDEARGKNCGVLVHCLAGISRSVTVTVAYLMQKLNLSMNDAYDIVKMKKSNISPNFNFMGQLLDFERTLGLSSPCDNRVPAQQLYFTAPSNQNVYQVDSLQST

Several values for one entry are separate records, joined by “and”; a condition that tells them apart may be missing. Equal values may be shown once. Only a part is listed here, and it is no random draw. Measured potencies and affinities stand elsewhere. Activity calls are given as the source filed them. Rule as the data show it: active = inhibition above about 50%; inactive = the rest.

This assay concerns the target Dual specificity protein phosphatase 6 (Rattus norvegicus) (UniProt Q64346). In words: MKP-3 phosphatase inhibitors, primary screen, biochemical, rat enzyme, in vitro (AID 425).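 Also: plate controls were vehicle for no effect and reference inhibitor for full effect.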 The note with it: recombinant MKP-3 phosphatase activity, fluorescence; at 20 µM; hits give high values.
As for `Cc1ccc(NP(C)(=O)Oc2ccccc2)c(C)c1` (stereo not drawn), the inhibition (commonly the drop in the measured response relative to a control, in per cent) is inactive: -12.4%.

On to `CP(=O)(NC(=O)Nc1ccccc1)Oc1ccccc1` (stereo not drawn), for which the inhibition is inactive: -7.7%.

As for `CCOP(C)(=S)SCC(=O)NC(C)C(=O)O` (stereo not drawn), the inhibition was inactive: -1.9% and inactive: -12.5%.

For `CP(=O)(Oc1ccccc1F)Oc1ccccc1F`, the inhibition was inactive: -11.9%.

For the compound `CN(C)CCOC(=O)C(O)(c1ccccc1)c1ccccc1`, the inhibition was inactive: -4.8%.

In the case of `CP(=S)(Nn1cnnc1)Oc1ccccc1` (stereo not drawn), the inhibition is inactive: 9.9%.

Consider `Cc1nc2ccc3ccccc3c2s1.O=[N+]([O-])c1cc([N+](=O)[O-])c(O)c([N+](=O)[O-])c1`, for which the inhibition is inactive: 6.1%.

As to `CP(=O)(Oc1ccccc1)Oc1ccccc1`, the inhibition was inactive: -2.4%.

On to `Cc1ccc(C)c(NP(C)(=O)Oc2ccccc2)c1` (stereo not drawn), for which the inhibition was inactive: 0%.

As to `CP(=O)(Oc1ccc(Cl)cc1)Oc1ccc(Cl)cc1`, the inhibition is inactive: 0.9%.

In the case of `CP(=O)(Nc1ccccc1F)Oc1ccccc1` (stereo not drawn), the inhibition is inactive: 9.9%.

With `CCOP(C)(=S)SCC(=O)NC(C)(CC)C(=O)O` (stereo not drawn), the inhibition was inactive: -6.2%.

With `CP(=O)(Nc1ccc2c(c1)OCCO2)Oc1ccccc1` (stereo not drawn), the inhibition was inactive: 1.5%.

With `Cc1ccccc1NP(C)(=O)Nc1ccccc1C`, the inhibition was inactive: -2.4%.

For the compound `CP(=O)(Oc1ccc(F)cc1)Oc1ccc(F)cc1`, the inhibition was inactive: 2.2%.

Take `CN(C)CCOC(=O)C(O)(c1ccccc1)C1CCCCC1` (stereo not drawn): the inhibition was inactive: -6.6%.

Take `CCN(CC)CC(O)COC(=O)C(O)(c1ccccc1)C1CCCCC1` (stereo not drawn): the inhibition is inactive: 3.9%.

For the compound `COc1ccccc1OP(C)(=O)Nc1c(C)n(C)n(-c2ccccc2)c1=O` (stereo not drawn), the inhibition is inactive: -12.8%.

Take `CP(=O)(Oc1ccccc1)N1CCOC1=O` (stereo not drawn): the inhibition was inactive: -1.9%.

As for `CP(=O)(Nc1ccccn1)Oc1ccccc1` (stereo not drawn), the inhibition is inactive: -3.5%.

As for `CCc1ccc(OP(C)(=O)O)cc1`, the inhibition is inactive: 5.7%.

Consider `COc1ccccc1OP(C)(=O)Nc1ccc(C)c(C)c1` (stereo not drawn), for which the inhibition is inactive: -6.9%.

As for `Cc1nc2ccc3ccccc3c2o1.O=[N+]([O-])c1cc([N+](=O)[O-])c(O)c([N+](=O)[O-])c1`, the inhibition is inactive: 0.3%.
